# Yeast mating assay 1: variants of the scFv Ab-14

Binding partner: SARS-CoV-2 spike HR2 peptide, sequence PDVDLGDISGINAS.

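Library AAYL49 holds single substitutions and randomly drawn double and triple substitutions in the CDRs. Affinity was read by AlphaSeq, a pooled yeast mating assay with surface-displayed partners. Binding brings cells together so that they mate, and sequencing counts the barcode pairs among the diploids. A regression on co-assayed BCL2-family reference pairs converts the normalised counts of each replicate to an apparent Kd. There are three technical replicates.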

The variants keep the light chain, the linker and the frameworks of Ab-14 (scFv order VH, a 15-residue (Gly4Ser)3 linker, VL).
VH: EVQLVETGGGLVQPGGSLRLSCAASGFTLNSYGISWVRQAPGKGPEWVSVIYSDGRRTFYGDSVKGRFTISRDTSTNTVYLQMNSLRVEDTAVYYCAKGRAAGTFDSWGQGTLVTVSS
VL: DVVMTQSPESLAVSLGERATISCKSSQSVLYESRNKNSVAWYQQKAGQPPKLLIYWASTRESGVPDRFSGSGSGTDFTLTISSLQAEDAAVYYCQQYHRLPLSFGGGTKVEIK

Variants are written as CDR1, CDR2 and CDR3 of the heavy chain (limits as in the source). Parent: GFTLNSYGIS, VIYSDGRRTFYGDSVK, GRAAGTFDS. Values are log10 of the apparent Kd in nM; lower means stronger binding. The mean shown is taken over the replicates in which the pair was detected. "n.d." marks a missing value. The strain was present, yet no cells mated with the target were sequenced in that replicate, which points to weak or no binding. In this assay the parent's reference entry averaged 0.65; its copy inside this library read 4.11 (one replicate of three).

"replicates, log10 nM","log10 Kd (nM), mean",signal with controls,CDR-H1,CDR-H2,CDR-H3
4.25 n.d. n.d.,4.25,4/9 (4.99),GFTLNSRGIS,VIGSDGLRTFYGDSVK,GRAAGTFDS
n.d. n.d. n.d.,n.d.,0/9,GFTLNSTGIS,VIYSDGRRTFWGDSVK,GRAAGNFDS
2.32 2.17 2.14,2.21,1/9 (4.08),GFTLNSYGIS,VIYSDGRRTFYVDSVW,GRAAGLFDS
n.d. n.d. n.d.,n.d.,1/9 (2.71),GFTLNSYGIS,VIYVDGRRTFYGDSVK,GRQAGTFIS
n.d. n.d. n.d.,n.d.,0/9,GFTLNSYCIS,VIWSDGRRTFYGDSVK,GRAAGTFDS
3.93 n.d. n.d.,3.93,0/9,GFTWNSYGIG,VIYSDGRRTFYGDSVK,GFAAGTFDS
n.d. n.d. 4.46,4.46,1/9 (2.76),GFTWNYYGIS,VIYSDGRRTFYGDSVN,GRAAGTFDS
n.d. n.d. n.d.,n.d.,0/9,GFTLNSYGIS,VIYSDGRRTFYGDMWK,GRAAGTSDS
4.97 n.d. 4.34,4.66,1/9 (4.56),GFTLNSYGRS,VIYSCGRRTTYGDSVK,GRAAGTFDS
3.76 2.78 2.68,3.07,0/9,GFTLSSYGIS,VIYSDGRRTFYGDSVS,GRAAGTFDV
n.d. 3.88 n.d.,3.88,2/9 (3.97),GFTLNSYGIS,VIMSDGRRTFYGDSVK,GRAAGTFTS
n.d. n.d. n.d.,n.d.,0/9,GFTLNSYGID,VIHSDGRRTFYGDSVK,GRAAGTFDS
n.d. 4.89 n.d.,4.89,1/9 (3.91),GFTLNSYGIS,AIYSDGRRTFYGDSVK,GQYAGTFDS
n.d. n.d. n.d.,n.d.,0/9,GFTLNSYGWP,VIYSDGRRTFYGDSVK,IRAAGTFDS
n.d. n.d. n.d.,n.d.,0/9,FFTLNSYGIS,VIYSDIRRTFYGDSDK,GRAAGTFDS
n.d. n.d. n.d.,n.d.,0/9,GFTLNSYGIS,VIYFDGSRTFYGDWVK,GRAAGTFDS
n.d. n.d. n.d.,n.d.,0/9,GFTLNSYGIW,VIYSDGRRTFYTDSVK,GEAAGTFDS
n.d. n.d. n.d.,n.d.,1/9 (2.61),GFTLNSYGTS,VIYSDIRRTFYGDSVK,GRAAGTFDV
1.48 1.58 1.53,1.53,4/9 (4.45),GFTLNSYGIS,VIYSDGQRTFYGNSVK,GRAAGTFRS
n.d. n.d. n.d.,n.d.,1/9 (2.34),GFTLNSYGIS,VIYSDGRRTFYGDSVK,VRAAGPFDS
1.51 1.48 1.41,1.47,2/9 (3.79),GFTLNSYGIS,VIYSDGRRTFYGDSVK,GRDAGTFDF
n.d. n.d. n.d.,n.d.,0/9,GFTLNSYGIS,VIYSDGRVTMYGDSVK,GRAAGTFDS
3.26 n.d. n.d.,3.26,1/9 (3.64),GFTKNSYGPS,VIYSDGRRTFYGDSVK,GRAAGTSDS
3.75 4.26 n.d.,4.01,3/9 (4.53),GFTLNSYGIS,NIYSDGRRTFSGDFVK,GRAAGTFDS
n.d. n.d. n.d.,n.d.,0/9,GVTLNSYGIS,VIYSDPRRTFYGDSVK,GRAAGTFDS
n.d. n.d. n.d.,n.d.,2/9 (3.70),GFTLNSYGDS,VIYSDGRRTFYSDSVK,GRAAETFDS
2.01 2.23 2.08,2.11,0/9,GFTINSYGIS,VIYSDGMRTFYGDSVK,GRAAGTFYS
n.d. n.d. n.d.,n.d.,0/9,GFTLHSYGIS,VIYSDGRQMFYGDSVK,GRAAGTFDS
3.50 n.d. 4.24,3.87,1/9 (4.48),TFTLNSYGIS,VIYSDGRRTFYGDSVK,GRAWGTYDS
n.d. n.d. n.d.,n.d.,2/9 (2.99),GFTLNSKGIS,VIVSDGRRTFYKDSVK,GRAAGTFDS
n.d. n.d. n.d.,n.d.,0/9,GFTLNSYGIS,VIYSDWRRTFYGDSVL,PRAAGTFDS
2.81 n.d. n.d.,2.81,0/9,GFTLGSYGIS,VIYSDGRRTFYNDSVK,GRAMGTFDS

Empty control strains, which show no peptide, gave a signal in 15% of pairings with library AAYL49; the median was 4.06 and 95% of these signals were weaker than 2.83. No background was subtracted. The control count says in how many pairings with the empty strains this scFv gave a signal, with their mean in brackets.

Reference: Engelhart et al. 2022, doi:10.1038/s41597-022-01779-4. File: FLAb, binding data.